For the test, the system named is Cyclin-dependent kinase 5/p25 (Homo sapiens). As to the kind of experiment: Inhibition of human recombinant CDK5/p25 at 10 uM.

The source made the active and inactive calls. The calls are words filed in the database; no cut-off is given here.

Among the data in ChEMBL document CHEMBL1800025 (J Med Chem, 2011) are inhibition values, retold here.

On to `CCCNC1=N/C(=C\c2ccc3c(c2)OCO3)C(=O)N1CCC`, for which the inhibition result is “inactive”.

Consider `CCCNC1=N/C(=C\c2ccc3c(c2)OCO3)C(=O)N1c1ccccc1`, for which the inhibition entry is “inactive”.
